## OPERA 2.9 data: properties

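The numbers are reported measurements, compiled and curated for the OPERA QSAR suite. The files give a single number for a compound and property, which may rest on several reports. Method and conditions are not stated for these values. A value may pool stereoisomers or salt forms, and the file does not say which form was measured. Some upstream entries may be estimates or bounds without being marked so.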

Melting points are in °C. Boiling points are in °C, nominally at 760 mmHg. The octanol-water partition coefficient is given as log10; larger values mean a more lipophilic compound. Water solubility is log10 of mol/L, nominally at 25 °C; higher is more soluble. Vapor pressures (log10 mmHg) refer to near room temperature, 15 to 30 °C; higher is more volatile. The unbound fraction in human plasma runs from 0 (all bound) to 1 (all free). Clint is human hepatic intrinsic clearance in µL/min per million cells; 0 means that no clearance was seen.

{"smiles": "CC(C(=O)O)c1ccc2c(c1)[nH]c1ccc(Cl)cc12", "stereo": "stereo unspecified", "name": "Carprofen", "logP (octanol/water)": "3.8", "water solubility (log10 mol/L)": "-4.859"}
{"smiles": "O=[N+]([O-])c1ccc(S(=O)(=O)Cl)cc1", "name": "Benzenesulfonyl chloride, 4-nitro-", "logP (octanol/water)": "2.1", "log vapor pressure (log10 mmHg)": "-3.99"}
{"smiles": "O=C1C=CC(=O)O1", "name": "2,5-Furandione", "logP (octanol/water)": "-2.645", "water solubility (log10 mol/L)": "-1.3"}
{"smiles": "NCc1cccc(CN)c1", "name": "1,3-Benzenedimethanamine", "logP (octanol/water)": "0.18", "log vapor pressure (log10 mmHg)": "-1.523"}
{"smiles": "CCCc1ccc(-c2ccc(-c3cc(F)c(C(F)(F)Oc4cc(F)c(F)c(F)c4)c(F)c3)c(F)c2)cc1", "melting point (°C)": "83.6", "log vapor pressure (log10 mmHg)": "-9.84"}
{"smiles": "C[C@@H]1C[C@H]2[C@@H]3C[C@H](F)C4=CC(=O)C=C[C@]4(C)[C@H]3[C@@H](O)C[C@]2(C)[C@H]1C(=O)CO", "name": "Fluocortolone", "logP (octanol/water)": "2.3", "water solubility (log10 mol/L)": "-3.266", "fu": "0.1"}
{"smiles": "CCC(C)NC1CCC(CC2CCC(NC(C)CC)CC2)CC1", "stereo": "stereo unspecified", "name": "Cyclohexanamine, 4,4'-methylenebis[N-(1-methylpropyl)-", "water solubility (log10 mol/L)": "-3.391", "log vapor pressure (log10 mmHg)": "-5.213"}
{"smiles": "CCC(C)c1cc(N=Nc2ccc([N+](=O)[O-])cc2)cc(C(C)CC)c1O", "stereo": "stereo unspecified", "logP (octanol/water)": "6.4", "water solubility (log10 mol/L)": "-7.852"}
{"smiles": "CCCCOC(=O)CCS", "name": "Butyl 3-mercaptopropionate", "logP (octanol/water)": "3.07", "water solubility (log10 mol/L)": "-2.228", "log vapor pressure (log10 mmHg)": "-0.306"}
{"smiles": "CCCCCCCCCCCCCCCCCCP(=O)(OC)OC", "name": "Dimethyl octadecylphosphonate", "melting point (°C)": "40.23", "logP (octanol/water)": "8.41", "water solubility (log10 mol/L)": "-5.53", "log vapor pressure (log10 mmHg)": "-4.178"}
{"smiles": "N#Cc1c(F)cccc1F", "name": "2,6-Difluorobenzonitrile", "logP (octanol/water)": "1.9", "water solubility (log10 mol/L)": "-1.871", "log vapor pressure (log10 mmHg)": "-0.87"}
{"smiles": "CCOc1cc(C)ccc1O", "name": "Phenol, 2-ethoxy-4-methyl-", "BP (°C)": "230.3", "logP (octanol/water)": "2.5", "log vapor pressure (log10 mmHg)": "-1.377"}
{"smiles": "O=C(O)[C@H]1O[C@H](O)[C@H](O)[C@@H](O)[C@@H]1O", "name": "alpha-D-Glucuronic acid", "melting point (°C)": "143.5", "logP (octanol/water)": "-2.57", "water solubility (log10 mol/L)": "0.398"}
{"smiles": "CC1(C)[C@H]2CC[C@]3(C2)[C@H]1C(=O)CCC3(C)C", "stereo": "relative stereo", "logP (octanol/water)": "4.905", "water solubility (log10 mol/L)": "-3.642", "log vapor pressure (log10 mmHg)": "-2.14"}
{"smiles": "CC(c1ccc(OC#N)cc1)c1ccc(OC#N)cc1", "name": "4,4'-Ethylidenediphenyl dicyanate", "melting point (°C)": "29", "water solubility (log10 mol/L)": "-5.218"}
{"smiles": "CCCCOCCCN1C(C(C(=O)Nc2cc(C(C)(C)C)ccc2SCC(CC)CCCC)N2C(=O)OC(C)(C)C2=O)=Nc2ccccc2S1(=O)=O", "stereo": "stereo unspecified", "melting point (°C)": "127", "water solubility (log10 mol/L)": "-6.976", "log vapor pressure (log10 mmHg)": "-4.727"}
{"smiles": "O=P(O)(O)C(O)(Cn1ccnc1)P(=O)(O)O", "name": "Zoledronate", "logP (octanol/water)": "-4.2", "water solubility (log10 mol/L)": "-1.92"}
{"smiles": "OCCN1CN(CCO)CN(CCO)C1", "name": "Triazinetriethanol", "melting point (°C)": "-79", "logP (octanol/water)": "-1.255"}
{"smiles": "C=CCCCCCCCCC(=O)NCC(=O)O", "name": "Undecylenoyl glycine", "melting point (°C)": "103", "logP (octanol/water)": "2.2", "water solubility (log10 mol/L)": "-3.474", "log vapor pressure (log10 mmHg)": "-2.002"}
{"smiles": "COC(=O)c1ccc(C(=O)OC)c([N+](=O)[O-])c1", "name": "Dimethyl nitroterephthalate", "logP (octanol/water)": "1.78", "water solubility (log10 mol/L)": "-2.836"}
{"smiles": "Cc1csc(=O)[nH]1", "name": "4-Methyl-1,3-thiazol-2(3H)-one", "melting point (°C)": "99", "water solubility (log10 mol/L)": "-0.66"}
{"smiles": "C[SiH2]Cl", "name": "Chloro(methyl)silane", "BP (°C)": "7", "log vapor pressure (log10 mmHg)": "2.314"}
{"smiles": "CC(C)(Br)CBr", "name": "Propane, 1,2-dibromo-2-methyl-", "melting point (°C)": "10.5", "log vapor pressure (log10 mmHg)": "1.289"}
{"smiles": "O=C(OCCOCCOC(=O)c1ccccc1)c1ccccc1", "name": "Diethylene glycol dibenzoate", "logP (octanol/water)": "3.2", "water solubility (log10 mol/L)": "-3.938", "log vapor pressure (log10 mmHg)": "-6.87", "hepatic Clint (µL/min/10^6 cells)": "843"}
{"smiles": "CC(C)=CC1CC(C)CCO1", "stereo": "stereo unspecified", "name": "4-Methyl-2-(2-methylprop-1-en-1-yl)tetrahydro-2H-pyran", "logP (octanol/water)": "3.45", "water solubility (log10 mol/L)": "-2.224", "log vapor pressure (log10 mmHg)": "-0.32"}

3 of these entries, quoted again:

{"smiles": "C[C@@H]1C[C@H]2[C@@H]3C[C@H](F)C4=CC(=O)C=C[C@]4(C)[C@H]3[C@@H](O)C[C@]2(C)[C@H]1C(=O)CO", "name": "Fluocortolone", "logP (octanol/water)": "2.3", "water solubility (log10 mol/L)": "-3.266", "fu": "0.1"}
{"smiles": "CC(C)=CC1CC(C)CCO1", "stereo": "stereo unspecified", "name": "4-Methyl-2-(2-methylprop-1-en-1-yl)tetrahydro-2H-pyran", "logP (octanol/water)": "3.45", "water solubility (log10 mol/L)": "-2.224", "log vapor pressure (log10 mmHg)": "-0.32"}
{"smiles": "O=[N+]([O-])c1ccc(S(=O)(=O)Cl)cc1", "name": "Benzenesulfonyl chloride, 4-nitro-", "logP (octanol/water)": "2.1", "log vapor pressure (log10 mmHg)": "-3.99"}

Source: data files of OPERA 2.9 (Mansouri et al.), github.com/kmansouri/OPERA.